B2AR arrestin: agonists driving beta-arrestin recruitment to human beta2-adrenergic receptor; P07550; beta-arrestin recruitment to beta2AR, cell-based reporter; Potency, µM (titrated, usually from 46.1 µM), usual class: activators; 0.02% of 330,000 active; also: nearly all actives have a fitted effect of over 65% in size
Nrf2 activator: activators of Nrf2 (ARE) signaling. Potency, µM (top dose mostly 46.1 µM), most hits filed as activators. AREc32 ARE-luciferase reporter (MCF7-derived line), luminescence, 24 h. 0.31% of 410,000 active; also: nearly all actives have a fitted effect of over 65% in size
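AREc32 cells carrying an ARE-driven firefly luciferase, 1000 cells/well in OPTI-MEM with 5% FBS, dosed after overnight attachment and incubated 24 hr at 37 deg C. Steady-Glo luminescence read after 30 min at RT.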
A549 viability: counter-screen for Nrf2 inhibitors: cytotoxicity in A549 cells; A549 ARE-Fluc cells, CellTiter-Fluor viability, 18-24 h; Potency, µM (titrated, usually from 46 µM), hits mostly inhibitors; 0.16% of 390,000 active; AID 504648
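Cytotoxicity counterscreen: CellTiter-Fluor fluorescence was measured in A549 ARE_Fluc cells after 18-24 h of compound exposure in a concentration series. The subsequent BugLite luminescent read reports ARE-luciferase activity.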
Nrf2 inh: Nrf2 pathway inhibition. AID 504444. 2.1% of 360,000 active. Potency, µM (doses to about 46 µM), hits mostly inhibitors. A549 ARE-Fluc reporter, luciferase luminescence, 18-24 h; also: nearly all actives have a fitted effect of over 60% in size
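Two sequential reads on A549 ARE_Fluc cells exposed to compound for 18-24 h: a CellTiter-Fluor fluorescence read for viability, then a luciferase luminescence read for Nrf2/ARE activity.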
miR-21 reporter: miR-21 reporter, rising signal | HeLa miR-21 FLuc reporter, luciferase, 48 h | Potency, µM (top dose mostly 38.3 µM) | 340,000 tested, under 10 active | AID 2288; active = well fitted rising curve with a large enough effect; inconclusive = small, poorly fitted or top-dose-only effect; inactive = no such curve, though single readings can be large or run the other way;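 note: miR-21 action dims this reporter so a rising signal means less miR-21 action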
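Using DMEM plus 10% FBS, HeLa miR-21-FLuc cells are incubated with test compounds (final up to about 40uM) for 48 hours; firefly luciferase signal is then imaged following reagent-mediated lysis.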
A number is an active result; - = inactive; ? = inconclusive; . = no result; [ ] = remark or other dose. Rows were chosen to be rich in hits. Some 2.2% of all compounds tested hit in one or more screens of this group. Unless noted, calls follow the shape of the dose curve; as a rule, active = well fitted curve in the direction sought with a large enough effect; inconclusive = small, poorly fitted or top-dose-only effect, or another doubt; inactive = no such curve, though single readings can be large; an effect the other way counts as inactive or inconclusive.

SMILES	B2AR arrestin	Nrf2 activator	A549 viability	Nrf2 inh	miR-21 reporter
Cc1ccc(NC(=O)C2CCN(S(=O)(=O)c3ccccc3)CC2)cc1	-	-	-	14.6µM	-
Cc1cccc(NC(=O)C2CCN(S(=O)(=O)c3ccc4[nH]c5c(c4c3)CCCCC5)CC2)c1	.	-	-	-	-
CCc1ccc(NC(=O)C2CCN(S(=O)(=O)c3ccc4c(c3)N(C(C)=O)CCO4)CC2)cc1	-	-	-	23.1µM	-
O=C(Nc1ccccc1)C1CCN(S(=O)(=O)c2ccc3[nH]c4c(c3c2)CCCCC4)CC1	.	-	-	16.4µM	-
COc1cccc(Cn2ncc3c4sc(S(C)=O)cc4n(C)c3c2=O)c1 (centres undefined)	.	.	-	-	.
COc1ccc(NC(=O)CSc2c(C(C)C)cnc3c2c(=O)n(C)c(=O)n3C)c(OC)c1	.	-	-	.	-
CN(c1ccc(C(=O)Nc2ccc(S(=O)(=O)N3CCCC3)cc2)cc1)S(C)(=O)=O	-	-	-	9.2µM	-
O=C(Nc1ccc(Cc2ccncc2)cc1)c1ccc(S(=O)(=O)N2CCOCC2)cc1	-	-	-	9.2µM	-
CCOc1ccc(C(=O)Nc2ccc(NC(=O)c3ccccc3)cc2)cc1Br	-	-	-	-	-
CCOc1ccc(C(=O)Nc2ccc(Cc3ccncc3)cc2)cc1Br	-	-	?	14.6µM	-
Cc1ccc(NC(=O)C2CCN(S(=O)(=O)c3cccs3)CC2)cc1C	-	-	-	25.9µM	-
Cc1cccc(NC(=O)C2CCN(S(=O)(=O)c3cccs3)CC2)c1	-	-	-	-	-
CN(c1ccccc1C(=O)Nc1ccc(S(=O)(=O)N2CCCC2)cc1)S(C)(=O)=O	-	-	-	-	-
COc1ccc(C2Nc3ccccc3C(=O)N2c2ccccc2F)cc1COc1ccc(NC(C)=O)cc1 (centres undefined)	.	.	-	-	.
COc1ccc(C2Nc3ccccc3C(=O)N2C2CCCC2)cc1COc1ccc(NC(C)=O)cc1 (centres undefined)	.	.	-	-	.
CN1CCN(c2oc(-c3ccc(OCc4ccc(Cl)cc4)cc3)nc2C#N)CC1	.	.	-	?	.
Cc1ccc(NC(=O)C2CCN(S(=O)(=O)c3ccc(F)cc3)CC2)cc1	-	-	-	-	-
O=C(Nc1ccc(S(=O)(=O)N2CCCC2)cc1)C1CCN(S(=O)(=O)c2ccc(F)cc2)CC1	-	-	-	23.1µM	.
CN(C1CCCCC1)S(=O)(=O)c1ccc(NC(=O)C2CCCCC2)cc1	-	-	-	23.1µM	-
CCOC(=O)N1C/C(=C\c2ccccc2)C(=O)/C(=C/c2ccccc2)C1	?	11.2µM	-	-	-
Cc1ccc(S(=O)(=O)N2CCN(c3nc(-c4ccco4)nc4ccccc34)CC2)cc1	.	.	-	-	.
CC(=O)c1ccc(-c2ccc([C@H]3[C@@H]4C=CCC[C@@]4(C)C(=O)N3Cc3ccccc3)c(F)c2)cc1	-	-	-	23.1µM	?
C[C@@H]1CC=C[C@H]2[C@H]1C(=O)N(Cc1ccccc1)[C@H]2c1ccc2ccccc2c1	-	-	?	20.6µM	?
COC(=O)c1ccc(-c2ccc([C@H]3[C@H]4C=CC[C@@H](C)[C@@H]4C(=O)N3Cc3ccccc3)c(F)c2)cc1	-	-	-	23.1µM	-
C[C@@H]1CC=C[C@H]2[C@H]1C(=O)N(Cc1ccccc1)[C@H]2c1ccc(F)c(Br)c1	-	.	.	.	?
SMILES	B2AR arrestin	Nrf2 activator	A549 viability	Nrf2 inh	miR-21 reporter
O=C(NCc1cccc(Br)c1)c1cnn(-c2ccc(F)cc2)c1-n1cccc1	.	-	-	-	-
COc1ccc(S(=O)(=O)N(CC(=O)Nc2ccccc2Br)Cc2ccccc2)cc1	.	-	-	?	-
COc1ccc2c(c1OC)C(=O)N(c1cccc(/C=C/C(=O)O)c1)C2	-	-	-	16.4µM	-
COc1ccc(N2Cc3ccc(OC)c(OC)c3C2=O)cc1	-	-	-	?	-
CCC(C)NS(=O)(=O)c1ccc(S(=O)(=O)N2CCCC3(CCCCC3)C2)cc1 (centres undefined)	-	-	-	20.6µM	-
O=C(CSC1=Nc2ccccc2N=C(c2ccc(F)cc2)C1)Nc1cc(F)ccc1F	.	-	-	.	-
COC(=O)c1ccc(OC)c(CSc2nnc(COc3ccc(OC)cc3)o2)c1	-	-	.	13µM	-
COC(=O)c1ccc(OC)c(CSc2nnc(COc3cccc(C)c3)o2)c1	-	-	-	?	-
COc1cc(NS(=O)(=O)c2ccc(OC)c(C)c2C)c(OC)cc1Cl	-	-	-	20.6µM	-
COc1cccc(C2c3c(ncn(Cc4cccs4)c3=N)Oc3ccc4ccccc4c32)c1 (centres undefined)	.	.	-	-	.
COc1cc(C(=O)N2CCN(c3ccccn3)CC2)cc(OC)c1OC	-	-[9.22 µM]	-	-	-
COc1cc2nc(Cl)nc(N3CCN(C)CC3)c2cc1OC	-	.	.	.	-
COc1cc2nc(C3CCC3)nc(N3CCN(c4ccccn4)CC3)c2cc1OC	-	-	?	25.9µM	-
COc1cc2nc(C3CCC3)nc(N3CCN(c4ccccc4OC)CC3)c2cc1OC	-	-	?	18.4µM	-
COc1ccc(Cn2c(CO)cnc2SCc2ccc(C)cc2)cc1	.	-	-	.	-
COc1ccc(-c2onc(C)c2C)cc1S(=O)(=O)N1CCc2ccccc21	.	-	-	18.4µM	-
CCc1ccc(OCC(=O)Nc2ccc3c(c2)c2ccccc2n3CC)cc1	.	-	-	?	-
CCn1c2ccccc2c2cc(NC(=O)COC(=O)c3cc(OC)c(OC)cc3OC)ccc21	-	-	-	16.4µM	-
COCCN1C(=O)c2[nH]nc(-c3ccccc3O)c2C1c1ccc(Cl)c(Cl)c1 (centres undefined)	.	-	-	-	?
CS(=O)(=O)c1ccc(Cl)c(NC(=O)COC(=O)c2ccc(F)cc2Cl)c1	-	-	-	11.6µM	-
CS(=O)(=O)c1ccc(Cl)c(NC(=O)CCl)c1	-	?	-	20.6µM	?
O=c1oc2ccc(F)cc2cc1-c1nc(-c2cccs2)no1	.	-	-	-	-
N#C/C(=N\Nc1cc(Cl)cc(Cl)c1)c1nnc2n1CCCCC2	-	-	?	18.4µM	-
Cn1c(=O)n(C)c2cc(NS(=O)(=O)c3ccc(C(C)(C)C)cc3)ccc21	-	-	-	10.3µM	-
CCc1ccc(S(=O)(=O)Nc2cccc(C3OCCCO3)c2)cc1	-	-	-	10.3µM	-
COc1ccc(S(=O)(=O)Nc2ccc3c(c2)n(C)c(=O)n3C)cc1C	-	-	-	?	-
CCOC(=O)c1oc2ccc(S(=O)(=O)Nc3ccc4c(c3)n(C)c(=O)n4C)cc2c1C	-	-	-	20.6µM	-
CCc1cccc(NS(=O)(=O)c2ccc3c(c2)n(C)c(=O)n3C)c1	-	-	-	13µM	-
CCc1ccc(S(=O)(=O)Nc2ccc3c(c2)n(C)c(=O)c(=O)n3C)cc1	.	-	-	?	-

Bioassay records from PubChem.
